Measured values reported in patent publication US11883383B2, “Pharmaceutically acceptable salts of [3-(4- {2-butyl-1-[4-(4-chloro-phenoxy)-phenyl]-1H-imidazol-4-yl} -phenoxy)-propyl]-diethyl-amine” (vTv Therapeutics LLC, priority 2018, dated 2024).

Assay: Salt/co-crystal screening: 38 acids, eight solvent systems, solids analysed by XRPD
Assay type: physicochemical
Conditions: acid/freebase charge 1:1 unless label says 2:1, stirred at RT, else 5° C. slurry, anti-solvent addition or evaporation (footnote marks)
Description: XRPD analysis was performed with a Panalytical X'Pert^3 Powder XRPD on a Si zero-background holder. The 2θ position was calibrated against Panalytical Si reference standard disc.
A total of 320 salt/co-crystal screening experiments were conducted using 38 acids (two molar ratios for HCl and HBr) and eight solvent systems. Specifically, freebase stock solutions of ˜100 mg/mL were first prepared in each solvent system. For each experiment, 0.2 mL stock solution and the corresponding acids were mixed in a molar charge ratio of 1:1 (acid/freebase, 2:1 for HCl/freebase and HBr/freebase as well), and then stirred at RT. After stirring for 3-5 days, if precipitation was observed, the precipitate was isolated. It no precipitation, the clear solutions were first transferred to slurry at 5° C. to introduce precipitation. Solutions without any precipitation were further subjected to anti-solvent addition (for solvents in column B/D, 0.5 mL hexane was added; for solvents in column G/H, 0.5 mL water was added; for solvent in column F, 0.5 mL n-heptane was added). If still no precipitation, the final clear solutions were transferred to evaporation at RT to induce precipitation. All solids isolated were vacuum dried at RT for 2 hrs before XRPD analysis.

H3PO4
gel*: Solid obtained in salt screening (XRPD), solvent H Dioxane/H2O (9:1, v/v) (Dioxane/H2O (9:1, v/v)) | Solid obtained in salt screening (XRPD), solvent A Ethanol (Ethanol) | Solid obtained in salt screening (XRPD), solvent G Methanol/H2O (19:1, v/v) (Methanol/H2O (19:1, v/v)) | Solid obtained in salt screening (XRPD), solvent C THF (THF)
